This passage reports MIC results from publication PMC6982817, “Substituted N-(Pyrazin-2-yl)benzenesulfonamides; Synthesis, Anti-Infective Evaluation, Cytotoxicity, and In Silico Studies” (Molecules, 2019).

≈ marks a conversion by molar mass, not a printed value. Where two headings read alike, the source gives them in different places. Some results are limits rather than exact numbers.

Holding throughout (assay type): cell-based
Assay [1] concerns Mycobacterium smegmatis DSM 43465 (ATCC 607). Description: Antimycobacterial microdilution assay, M. smegmatis. Particulars: Mycolicibacterium smegmatis. For orientation: In broth dilution the organism is exposed to a series of concentrations in liquid medium.
In assay [2] the test system is M. kansasii CNCTC My 235/80 (ATCC 12478). Description: Antimycobacterial microplate alamar blue assay, M. kansasii. Particulars: Mycobacterium kansasii, ATCC12478, pH 6.6, read-out: Antimycobacterial Activity MIC M. kansasii.
Assay [3] concerns Mycobacterium aurum DSM 43999 (ATCC 23366). Description: Antimycobacterial microdilution assay, M. aurum. As to conditions: Mycolicibacterium aurum, 72 h, read-out: Antimycobacterial Activity MIC M. aurum.
The test system of assay [4] is M. avium ssp. avium CNCTC My 80/72 (ATCC 15769). Description: Antimycobacterial microplate alamar blue assay, M. avium. As to conditions: Mycobacterium avium, ATCC15769, pH 6.6, read-out: Antimycobacterial Activity MIC M. avium. A general note: Alamar Blue is a resazurin reagent that responds to reducing activity.

For the compound `NS(=O)(=O)c1ccccc1` [Benzenesulfonamide, benzenesulfonamide], the MIC (as a rule, the lowest concentration that inhibits growth of the organism) in assay [1] (48 h, read-out: Antimycobacterial Activity MIC M. smeg) is 31.2 µg/mL; in assay [1] (read-out: MIC M. smegmatis in μM), 199 µM; in assay [2], above 100 µg/mL; in assay [3], 125 µg/mL (≈ 795 µM); in assay [4] it was above 100 µg/mL.
